Reference: patent US11856945B2, “Methods and systems for preparing and preserving a biological sample” (Washington University, priority 2017, dated 2024)

Assay: Circular dichroism of HSA secondary structure
Assay type: physicochemical
Conditions: 1 week incubation at 40° C., versus pristine HSA
Description: The slightly acidic environment (at or below pH 6) was employed to dissociate ZIF-8 crystals and release encapsulated NGAL via breaking coordination between the zinc ions and imidazolate. ZIF-8 encapsulated NGAL dried on the paper was almost fully eluted (>95%) whereas NGAL alone dried on the paper was only partially eluted (˜75%) (FIG. 9). It is important to note that ZIF-8 encapsulation prevented irreversible adsorption of proteins on the cellulose fibers by creating a crystal interface between the protein and paper substrate. […] NGAL concentration was tested by ELISA when NGAL was spiked in four different media. The same concentration of NGAL in phosphate-buffered saline (PBS) at pH 7.4 was set as the reference (100%). […] After storage and elution, the concentration of NGAL in the eluate was quantified using the NGAL sandwich ELISA. The preservation efficacy (preservation %) was calculated by comparing the NGAL amount in the eluate to the spiked NGAL amount in the artificial urine. […] NGAL added on a paper card was stored at 25, 40 or 60° C. for one week. […]
CD spectroscopy. […] The HSA recovered from various treatments was quantified by BCA assay for calculating molar ellipticity. The secondary structures of HSA (α-helical content, β-sheet content) were analyzed using CDPro software from CD spectra.

human serum albumin [unencapsulated HSA]
secondary structure (CD spectrum): a decrease in the α-helical content
